This passage reports IC50 results from BindingDB's records for patent US9303015 (Janssen Pharmaceutica NV, 2016).

Sequences of proteins named here, by UniProt entry; tags and fusion partners are left off. Residues count along the entry.
UniProt P51449, 258-518 Y502F: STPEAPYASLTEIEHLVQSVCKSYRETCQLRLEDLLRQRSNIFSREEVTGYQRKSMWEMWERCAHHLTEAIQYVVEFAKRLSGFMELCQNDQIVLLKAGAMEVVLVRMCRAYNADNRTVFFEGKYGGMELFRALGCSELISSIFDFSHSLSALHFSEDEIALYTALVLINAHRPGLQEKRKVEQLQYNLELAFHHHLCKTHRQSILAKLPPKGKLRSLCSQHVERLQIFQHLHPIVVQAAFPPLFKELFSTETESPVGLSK

For orientation: IC50 means the concentration that gives 50% inhibition. High values mean weaker potency in that assay, low ones greater potency in that assay.

This test has as its target T1, Nuclear receptor ROR-gamma [258-518,Y502F] (Human, UniProt P51449, Y502F).
T1 construct: 258-518
As to the kind of experiment: RORγt Reporter Assay.

Where “and” joins values, the source holds several entries; their conditions need not be identical. Identical values can stand only once.

With `Cn1cncc1C(O)(c1ccc(Cl)cc1)c1ccc2nc(N3CCC3)c(Oc3ccc(C#N)cc3)c(Cl)c2c1` (single isomer, unassigned) [US9303015, 32a], the IC50 was 120 nM and 66 nM. Then `COc1ccc(C(O)(c2ccc3nc(N(C)C)c(Oc4ccccc4)c(Cl)c3c2)c2cncn2C)cn1` (stereo not drawn) [US9303015, 17], with 150 nM.

For the molecule `Cn1cncc1C(O)(c1ccc(Cl)cc1)c1ccc2nc(N3CCC3)c(Oc3ccc(C#N)cc3)c(Cl)c2c1` (stereo not drawn) [US9303015, 32a], inhibition was half-maximal at 72 nM (IC50).
